Target: hITK enzyme (FLAG-tagged full-length hITK) (Homo sapiens, UniProt Q08881)
Test: ITK inhibitory activity (HTRF kinase assay, biotinylated GST-SLP76 substrate)
Conditions: read-out: ITK IC50; IC50 calculated from the 2 test compound concentrations sandwiching 50% ITK inhibitory rate

Protein sequences, listed by entry. Tags and fused reporters are not part of them.
UniProt Q08881, whole entry: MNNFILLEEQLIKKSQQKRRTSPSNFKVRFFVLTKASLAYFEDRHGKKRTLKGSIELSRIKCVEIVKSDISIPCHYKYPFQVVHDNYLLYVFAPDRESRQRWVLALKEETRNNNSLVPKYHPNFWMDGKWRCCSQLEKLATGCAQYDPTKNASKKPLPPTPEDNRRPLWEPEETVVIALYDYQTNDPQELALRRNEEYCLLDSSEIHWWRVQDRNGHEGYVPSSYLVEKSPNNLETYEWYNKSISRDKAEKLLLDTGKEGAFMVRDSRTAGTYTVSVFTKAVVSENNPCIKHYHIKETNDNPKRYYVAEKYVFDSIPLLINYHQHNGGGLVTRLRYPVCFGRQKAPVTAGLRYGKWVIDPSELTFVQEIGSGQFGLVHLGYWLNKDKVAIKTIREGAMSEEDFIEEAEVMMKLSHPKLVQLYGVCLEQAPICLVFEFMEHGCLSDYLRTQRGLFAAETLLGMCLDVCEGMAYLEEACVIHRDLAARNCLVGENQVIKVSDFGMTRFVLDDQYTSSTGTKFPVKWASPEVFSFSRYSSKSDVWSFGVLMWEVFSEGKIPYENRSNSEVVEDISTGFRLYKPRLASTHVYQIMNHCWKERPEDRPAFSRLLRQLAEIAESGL

Row | Compound | IC50 [nM]
1 | CCN(C(=O)CN1C(=O)COC[C@H]1C)c1ccc2cc(-c3n[nH]c4c3CCC(C)(C)C4)[nH]c2c1 | 1
2 | CN(C(=O)CC1CCCCO1)c1ccc2cc(-c3n[nH]c4c3CCC(C)(C)C4)[nH]c2c1 (stereo not drawn) | 4
3 | CN(C(=O)CC(C)(C)C)c1ccc2cc(-c3n[nH]c4c3CCC(C)(C)C4)[nH]c2c1 | 13

From US8299070B2, “Indole compounds and pharmaceutical use thereof” (Japan Tobacco Inc., priority 2009, dated 2012)
